System: THP-1 cells
Format: cell-based, human
Settings: SLC19A1-depleted THP-1 or U937 cells

B1: hIFN-β: human interferon-β (PeproTech) (protein, UniProt P01574 22-187, looked up)
Interferon beta: MSYNLLGFLQRSSNFQCQKLLWQLNGRLEYCLKDRMNFDIPEEIKQLQQFQKEDAALTIYEMLQNIFAIFRQDSSSTGWNETIVENLLANVYHQINHLKTVLEEKLEKEDFTRGKLMSSLHLKRYYGRILHYLKAKEYSHCAWTIVRVEILRNFYFINRLTGYLRN
Which “reporter response in SLC19A1-depleted cells” value does the source give for B1 here?
The value was “responded normally”.

Reference: PMC6785039 (Nature, 2019)
